From ChEMBL document CHEMBL2150924, “Inhibition of NaV1.6 sodium channel currents by a novel series of 1,4-disubstituted-triazole derivatives obtained via copper-catalyzed click chemistry” (Bioorg Med Chem Lett, 2012)

By UniProt entry, the sequences of proteins in these tests, tags left out.
UniProt O88420, whole entry: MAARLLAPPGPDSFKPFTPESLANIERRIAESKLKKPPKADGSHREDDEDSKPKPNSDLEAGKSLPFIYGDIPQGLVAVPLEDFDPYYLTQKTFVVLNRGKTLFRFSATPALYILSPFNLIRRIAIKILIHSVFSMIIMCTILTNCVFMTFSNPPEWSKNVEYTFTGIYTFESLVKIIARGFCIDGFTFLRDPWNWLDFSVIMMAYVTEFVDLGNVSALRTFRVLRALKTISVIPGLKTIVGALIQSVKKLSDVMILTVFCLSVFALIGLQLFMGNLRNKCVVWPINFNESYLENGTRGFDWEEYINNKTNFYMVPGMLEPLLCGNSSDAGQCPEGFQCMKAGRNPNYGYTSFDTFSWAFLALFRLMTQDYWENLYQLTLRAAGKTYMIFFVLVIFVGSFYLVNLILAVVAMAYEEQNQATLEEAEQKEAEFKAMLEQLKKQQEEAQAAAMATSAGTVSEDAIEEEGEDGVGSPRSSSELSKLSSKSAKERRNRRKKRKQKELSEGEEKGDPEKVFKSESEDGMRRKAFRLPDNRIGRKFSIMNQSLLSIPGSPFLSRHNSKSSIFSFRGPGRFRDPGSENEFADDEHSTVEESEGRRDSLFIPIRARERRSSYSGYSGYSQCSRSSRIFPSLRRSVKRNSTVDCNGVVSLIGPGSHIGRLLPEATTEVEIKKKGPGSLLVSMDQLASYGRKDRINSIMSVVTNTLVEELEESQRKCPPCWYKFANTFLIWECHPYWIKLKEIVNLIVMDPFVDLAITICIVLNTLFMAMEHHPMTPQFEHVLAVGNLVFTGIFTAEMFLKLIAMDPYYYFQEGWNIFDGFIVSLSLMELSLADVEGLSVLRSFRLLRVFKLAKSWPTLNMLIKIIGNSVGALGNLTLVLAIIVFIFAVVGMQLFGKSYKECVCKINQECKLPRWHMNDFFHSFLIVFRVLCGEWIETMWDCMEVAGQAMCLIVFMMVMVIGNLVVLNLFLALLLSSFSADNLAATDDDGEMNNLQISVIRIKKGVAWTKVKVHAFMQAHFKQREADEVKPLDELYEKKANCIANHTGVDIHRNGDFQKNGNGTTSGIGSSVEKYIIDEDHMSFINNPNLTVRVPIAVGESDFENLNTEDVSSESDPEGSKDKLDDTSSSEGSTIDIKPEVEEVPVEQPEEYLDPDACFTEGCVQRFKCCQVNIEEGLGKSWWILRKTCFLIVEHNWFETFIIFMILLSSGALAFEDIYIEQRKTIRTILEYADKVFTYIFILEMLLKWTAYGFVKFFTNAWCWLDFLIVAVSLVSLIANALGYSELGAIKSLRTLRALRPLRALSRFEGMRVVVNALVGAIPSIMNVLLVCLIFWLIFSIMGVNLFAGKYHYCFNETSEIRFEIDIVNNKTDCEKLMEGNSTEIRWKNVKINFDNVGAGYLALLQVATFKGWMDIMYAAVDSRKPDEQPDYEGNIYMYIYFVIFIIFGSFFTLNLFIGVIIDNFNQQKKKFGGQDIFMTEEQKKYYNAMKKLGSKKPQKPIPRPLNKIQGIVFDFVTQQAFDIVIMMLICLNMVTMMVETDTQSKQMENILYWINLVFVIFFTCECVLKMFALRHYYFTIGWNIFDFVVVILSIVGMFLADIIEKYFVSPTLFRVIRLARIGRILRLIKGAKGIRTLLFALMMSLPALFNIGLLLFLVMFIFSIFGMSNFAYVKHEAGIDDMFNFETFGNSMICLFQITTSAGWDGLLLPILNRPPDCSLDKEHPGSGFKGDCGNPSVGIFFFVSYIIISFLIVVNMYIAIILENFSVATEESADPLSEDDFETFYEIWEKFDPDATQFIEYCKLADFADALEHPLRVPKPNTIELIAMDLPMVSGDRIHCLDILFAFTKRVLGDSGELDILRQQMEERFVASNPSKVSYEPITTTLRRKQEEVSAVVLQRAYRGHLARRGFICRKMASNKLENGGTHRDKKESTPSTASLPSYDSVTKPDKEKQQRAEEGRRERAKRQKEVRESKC

Biological target: Sodium channel protein type 8 subunit alpha (Rattus norvegicus, UniProt O88420)
Test: Inhibition of rat NaV1.6-mediated current expressed in human HEK293 cells by patch clamp assay
Assay type: cell-based

IC50: 32.2 µM
SMILES: c1ccc(-c2c[nH]c(-c3ccccc3)n2)cc1
